The source of these data is patent US11312727B1, “Macrocyclic flu endonuclease inhibitors” (Janssen BioPharma, Inc., priority 2018, dated 2022).

Each structure is given as a SMILES string.

In general, IC50 refers to the concentration that gives 50% inhibition.

The assay concerns the target EN PA (full length recombinant PA endonuclease) (Influenza A virus (strain A/Wilson-Smith/1933 H1N1) (Influenza A virus (strain A/WS/1933 H1N1)), UniProt P15659). It counts as biochemical. Conditions: read-out: FRET_ _IC50.
Consider `O=C1c2c(O)c(=O)ccn2N2CN1C/C=C\CCc1ccccc1C2c1ccncc1` (single isomer, unassigned) [Compound 52A, (16*R,*Z)-4-hydroxy-16-(pyridin-4-yl)-7,10,11,16-tetrahydro-6,17-methanobenzo[k]pyrido[1,2-b][1,2,5]triazacyclotridecine-3,5-dione], for which the IC50 is 0.653 µM.
In the case of `O=C1c2c(O)c(=O)ccn2N2CN1C/C=C\CCc1ccccc1C2c1ccncc1` (single isomer, unassigned) [Compound 52B, (16*S,*Z)-4-hydroxy-16-(pyridin-4-yl)-7,10,11,16-tetrahydro-6,17-methanobenzo[k]pyrido[1,2-b][1,2,5]triazacyclotridecine-3,5-dione], the IC50 is 0.04 µM.
Turning to `O=C1c2c(O)c(=O)ccn2N2CN1C/C=C/CCc1c(F)cccc1C2c1cccc(F)n1` (single isomer, unassigned) [Compound 76A, (16*R,E)-12-fluoro-16-(6-fluoropyridin-2-yl)-4-hydroxy-7,10,11,16-tetrahydro-6,17-methanobenzo[k]pyrido[1,2-b][1,2,5]triazacyclotridecine-3,5-dione], the IC50 is 0.346 µM.
As to `O=C1c2c(O)c(=O)ccn2N2CN1C/C=C/CCc1c(F)cccc1C2c1cccc(F)n1` (single isomer, unassigned) [Compound 76B, (16*S,E)-12-fluoro-16-(6-fluoropyridin-2-yl)-4-hydroxy-7,10,11,16-tetrahydro-6,17-methanobenzo[k]pyrido[1,2-b][1,2,5]triazacyclotridecine-3,5-dione], the concentration for half-maximal inhibition (IC50) worked out at 0.009 µM.
